Source: publication PMC5316407, “In vivo imaging of systemic transport and elimination of xenobiotics and endogenous molecules in mice” (Archives of Toxicology, 2016)

Assays:
[1] = Intravital two-photon imaging of intestinal transport (duodenum, capillaries to lacteal); conditions: for Half-life: intestine
[2] = Intravital two-photon imaging of glomerular filtration and tubular transport in the kidney; conditions: for Tmax: individual renal tubule
[3] = Intravital two-photon imaging of hepatic transport after tail vein injection; conditions: for Half-life: liver
[4] = tubular lumina, range over imaged tubules

dextran
Transfer from intestinal blood capillaries into lymphatic vessels (lacteals), blood-lacteal barrier ([1]; after intravenous injection): efficiently taken up into lymphatic vessels
Transport from intestinal capillaries into intestinal crypt cells and secretion into the intestinal lumen ([1]; after intravenous injection): No transport
Transfer from intestinal blood capillaries into lymphatic vessels (lacteals), blood-lacteal barrier ([1]; after intravenous injection, listed as Dextran): crossed the blood-lacteal barrier within seconds
Half-life ([1]; blood vessels): 14.32 min
Half-life ([1]; lymph vessels, nd = no detected decrease in fluorescence within the recording time of 4 min (CLF)): 35.01 min
Fluorescence intensity in the distal tubules compared to the proximal tubules ([2]; CLF: approximately 9 min after injection, versus highest intensity in proximal tubules): approximately sixfold
Tmax ([2]; Fig. 7, Tubule: 1): 34.8 s
Tmax ([2]; Fig. 7, Tubule: 2): 31.2 s
Tmax ([2]; Fig. 7, Tubule: 3): 39 s
Tmax ([2]; Fig. 7, Tubule: 4): 25.8 s
Tmax ([2]; Fig. 7, Tubule: 5): 25.2 s
Tmax ([2]; Fig. 7, Tubule: 6): 25.8 s
Tmax ([2]; Fig. 7, Tubule: 7): 66 s
Tmax ([2]; Fig. 7, Tubule: 8): 43.2 s
Tmax ([2]; Fig. 7, Tubule: 9): 78 s
Tmax ([2]; Fig. 7, Tubule: 10): 66 s
Tmax ([2]; Fig. 7, Tubule: 11): 67.2 s
Tmax ([2]; Fig. 7, Tubule: 12): 24 s
Tmax ([2]; Fig. 7, Tubule: 13): 25.2 s
Tmax ([2]; Fig. 7, Tubule: 14): 25.2 s
Tmax ([2]; Fig. 7, Tubule: 15): 24 s
Tmax ([2]; Fig. 7, Tubule: 16): 34.2 s
Tmax ([2]; Fig. 7, Tubule: 17): 46.8 s
Tmax ([2]; Fig. 7, Tubule: 18): 42 s
Tmax ([2]; Fig. 7, Tubule: 19): 34.8 s
Tmax ([2]; Fig. 7, Tubule: 20): 61.8 s
Half-life ([2]; kidney, Bowman's space): 394 s
Half-life of filtration into Bowman's space compared to CLF ([2]; kidney, Bowman's space, dextran versus CLF): threefold
Half-life ([2]; kidney, glomerular capillaries): 1052 s
Half-life ([2]; kidney, proximal tubule): 637.2 s
Time to maximum (T max) fluorescence, distal tubules [2, 4]: 61.8 to 78 s
Time to maximum (T max) fluorescence, proximal tubules [2, 4]: 24 to 46.8 s
Enrichment in the LSEC/space of Dissé ([3]; after tail vein injection): no enrichment
Time after injection until detectable in the bile canaliculi ([3]; after tail vein injection): Approximately 15 min
Half-life ([3]; LSEC/Dissé space): 1149 s
Half-life ([3]; sinusoids, fluorescence intensity after tail vein injection (CLF 2.5 mg/kg, dextran 30 mg/kg)): 954 s and 954.6 s
Appearance in the liver sinusoids after tail vein injection ([3]; time after tail vein injection): 15 s

Several values for one entry are separate records, joined by “and”; a condition that tells them apart may be missing. Identical values can stand only once.
